# Measured values taken from publication PMC4051630, “A Comparison of Protein Kinases Inhibitor Screening Methods Using Both Enzymatic Activity and Binding Affinity Determination” (PLoS ONE, 2014).
# Target: T1, DMPK Catalytic Domain (Homo sapiens, UniProt Q09013)
# T1 sequence (Q09013 71-339 limits assumed): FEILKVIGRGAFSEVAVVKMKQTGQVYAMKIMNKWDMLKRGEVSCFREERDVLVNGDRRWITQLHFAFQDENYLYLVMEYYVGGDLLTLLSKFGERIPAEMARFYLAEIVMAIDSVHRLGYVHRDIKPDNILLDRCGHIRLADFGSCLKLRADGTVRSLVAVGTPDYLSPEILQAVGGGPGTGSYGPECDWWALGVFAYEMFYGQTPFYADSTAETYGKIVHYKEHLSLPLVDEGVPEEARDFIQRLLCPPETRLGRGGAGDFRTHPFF
# Experiment: Differential Scanning Fluorimetry (DSF) Tm shift
# Type: binding
# Set-up: For all of them, we expressed and purified the catalytic domain separately; His-tag; made in house; host or cells: Escherichia coli
# Details: 2 µM protein, 10 µM inhibitor, average of 3 experiments, each in duplicate
smiles,measurement,value
CO[C@@H]1[C@H](N(C)C(=O)c2ccccc2)C[C@H]2O[C@]1(C)n1c3ccccc3c3c4c(c5c6ccccc6n2c5c31)C(=O)NC4,Melting temperature (Tm) shift,1.7 degrees Celcius
